Laboratory results taken from patent US8551984B2, “Aminopyrimidines as SYK inhibitors” (Merck Sharp & Dohme Corp., priority 2009, dated 2013).

Target: recombinant human SYK (GST-hSYK fusion protein) (Homo sapiens, UniProt P43405)
Conditions: tested form: formate

IC50: < 100 nM
SMILES: COc1nc(Nc2cc(C)cc(-c3cnc(C4(O)CCC(C(=O)O)C(C)C4)s3)c2)ncc1F (single isomer, unassigned)
